From BindingDB's records for PubMed 11454918

Protein sequences, listed by entry. Tags and fused reporters are not part of them.
UniProt P23977, whole entry: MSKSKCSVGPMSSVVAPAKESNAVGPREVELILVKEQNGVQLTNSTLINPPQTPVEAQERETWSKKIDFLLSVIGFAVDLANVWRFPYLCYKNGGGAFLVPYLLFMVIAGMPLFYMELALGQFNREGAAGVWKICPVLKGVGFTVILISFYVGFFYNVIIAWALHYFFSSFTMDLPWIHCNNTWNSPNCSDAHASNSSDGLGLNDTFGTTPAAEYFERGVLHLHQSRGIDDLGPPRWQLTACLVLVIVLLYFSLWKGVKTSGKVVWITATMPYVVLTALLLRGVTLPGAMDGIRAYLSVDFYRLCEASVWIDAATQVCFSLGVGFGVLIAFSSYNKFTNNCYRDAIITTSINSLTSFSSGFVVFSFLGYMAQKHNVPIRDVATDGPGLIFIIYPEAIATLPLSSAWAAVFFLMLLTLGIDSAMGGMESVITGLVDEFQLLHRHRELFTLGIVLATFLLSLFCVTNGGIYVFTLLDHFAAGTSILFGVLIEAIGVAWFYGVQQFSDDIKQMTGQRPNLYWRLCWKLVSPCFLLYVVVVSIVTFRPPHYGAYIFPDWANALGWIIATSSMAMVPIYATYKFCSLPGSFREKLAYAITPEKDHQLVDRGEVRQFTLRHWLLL

Key:
[1] = target: Norepinephrine transporter (Rattus norvegicus, UniProt Q9JIA2)
[2] = target: Sodium-dependent dopamine transporter (Rattus norvegicus, UniProt P23977)

For `COc1ccc(C(CN(C)C)C2(O)CCCCC2)cc1` (configuration not stated) [NSC_62923], the Ki [1] was 1 µM and the Ki [2] was > 10 µM.
